Results published in patent US20050049197A1, “Induction of immune response against desired determinants” (Epimmune Inc., priority 1993, published 2005).

System: P. yoelii sporozoites
Experiment: Inhibition of liver stage development assay (ILSDA), mouse hepatocytes infected with P. yoelii sporozoites
Type: cell-based
Settings: sera of immunized mice, dilution not stated

SMILES: CC(C)C[C@H](NC(=O)[C@@H](NC(=O)[C@H](Cc1c[nH]c2ccccc12)NC(=O)[C@H](C)NC(=O)[C@H](C)NC(=O)[C@@H](NC(=O)[C@H](CC1CCCCC1)NC(=O)[C@H](CCCCN)NC(=O)[C@@H](C)N)C(C)C)[C@@H](C)O)C(=O)N[C@@H](CCCCN)C(=O)N[C@@H](C)C(=O)N[C@H](C)C(=O)N[C@@H](CC(N)=O)C(=O)N[C@@H](C)C(=O)N[C@@H](CC(N)=O)C(=O)N1CCC[C@H]1C(=O)N[C@@H](CC(N)=O)C(=O)N[C@@H](C)C(=O)N[C@@H](CC(N)=O)C(=O)N1CCC[C@H]1C(=O)N[C@@H](CC(N)=O)C(=O)N[C@@H](C)C(=O)N[C@@H](CC(N)=O)C(=O)N1CCC[C@H]1C(=O)N[C@@H](CC(N)=O)C(=O)N[C@@H](C)C(=O)N[C@@H](CC(N)=O)C(=O)N1CCC[C@H]1C(=O)NCC(=O)NCC(=O)N[C@@H](CO)C(=O)O [PADRE ®-PfB, aKXVAAWTLKAa(NANP)4GGS]
- inhibition of P. yoelii sporozoite invasion and development in murine hepatocytes: no significant effect
